From ChEMBL document CHEMBL1132759, “The flavanolignan silybin and its hemisynthetic derivatives, a novel series of potential modulators of P-glycoprotein” (Bioorg Med Chem Lett, 2000)

By UniProt entry, the sequences of proteins in these tests, tags left out.
UniProt P21447, whole entry: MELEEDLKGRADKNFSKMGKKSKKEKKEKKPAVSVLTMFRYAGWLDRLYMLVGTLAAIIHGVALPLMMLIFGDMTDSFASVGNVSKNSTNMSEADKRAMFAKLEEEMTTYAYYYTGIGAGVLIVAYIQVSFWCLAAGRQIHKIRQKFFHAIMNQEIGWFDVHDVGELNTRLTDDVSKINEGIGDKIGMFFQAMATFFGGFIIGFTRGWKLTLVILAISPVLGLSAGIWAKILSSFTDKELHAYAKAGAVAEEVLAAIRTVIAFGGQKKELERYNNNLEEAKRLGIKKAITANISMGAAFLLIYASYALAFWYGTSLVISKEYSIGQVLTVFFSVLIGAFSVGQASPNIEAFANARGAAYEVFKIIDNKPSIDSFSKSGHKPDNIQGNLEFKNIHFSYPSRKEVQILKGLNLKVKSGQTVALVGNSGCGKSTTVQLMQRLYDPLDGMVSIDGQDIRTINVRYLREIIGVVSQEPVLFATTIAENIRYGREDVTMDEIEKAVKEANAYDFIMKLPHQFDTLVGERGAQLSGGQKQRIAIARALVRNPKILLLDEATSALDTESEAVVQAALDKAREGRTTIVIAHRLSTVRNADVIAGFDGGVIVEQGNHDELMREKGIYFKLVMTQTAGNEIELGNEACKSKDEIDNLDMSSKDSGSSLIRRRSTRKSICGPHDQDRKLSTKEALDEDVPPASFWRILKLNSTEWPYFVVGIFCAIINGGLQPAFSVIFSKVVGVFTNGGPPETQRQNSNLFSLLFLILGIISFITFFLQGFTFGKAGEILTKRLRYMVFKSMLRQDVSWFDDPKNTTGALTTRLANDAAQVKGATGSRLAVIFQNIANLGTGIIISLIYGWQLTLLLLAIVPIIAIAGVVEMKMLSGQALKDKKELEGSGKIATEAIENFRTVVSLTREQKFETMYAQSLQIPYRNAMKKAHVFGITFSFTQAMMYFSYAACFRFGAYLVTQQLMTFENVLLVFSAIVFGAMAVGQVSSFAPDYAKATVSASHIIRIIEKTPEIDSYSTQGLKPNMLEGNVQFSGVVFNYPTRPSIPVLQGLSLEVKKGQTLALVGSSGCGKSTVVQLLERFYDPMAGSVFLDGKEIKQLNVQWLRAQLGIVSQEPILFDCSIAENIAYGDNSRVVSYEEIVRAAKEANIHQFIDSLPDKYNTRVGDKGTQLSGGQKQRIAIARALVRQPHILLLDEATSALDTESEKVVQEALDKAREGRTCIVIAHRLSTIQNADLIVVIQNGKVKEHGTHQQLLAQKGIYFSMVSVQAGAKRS

Target: ATP-dependent translocase ABCB1 (Mus musculus, UniProt P21447)
Test: Compound was tested for the binding affinity towards recombinant NBD2 C-terminal cytosolic nucleotide-binding domain of mouse P-Glycoprotein

COc1cc(C2Oc3cc(-c4oc5cc(O)cc(O)c5c(=O)c4O)ccc3OC2CO)ccc1O (stereo unspecified) [DEHYDROSILYLBIN]
Kd: 2.2 µM
